Reference: patent US20210220370A1, “SELECTIVE HDAC8 INHIBITORS AND THEIR USES” (HOCHSCHULE DARMSTADT, priority 2015, published 2021)

The chains behind the UniProt entries cited, without tags or fusion partners. Where a name states a change or a piece, a line headed by the entry shows the natural chain unless it says otherwise.
UniProt P56524: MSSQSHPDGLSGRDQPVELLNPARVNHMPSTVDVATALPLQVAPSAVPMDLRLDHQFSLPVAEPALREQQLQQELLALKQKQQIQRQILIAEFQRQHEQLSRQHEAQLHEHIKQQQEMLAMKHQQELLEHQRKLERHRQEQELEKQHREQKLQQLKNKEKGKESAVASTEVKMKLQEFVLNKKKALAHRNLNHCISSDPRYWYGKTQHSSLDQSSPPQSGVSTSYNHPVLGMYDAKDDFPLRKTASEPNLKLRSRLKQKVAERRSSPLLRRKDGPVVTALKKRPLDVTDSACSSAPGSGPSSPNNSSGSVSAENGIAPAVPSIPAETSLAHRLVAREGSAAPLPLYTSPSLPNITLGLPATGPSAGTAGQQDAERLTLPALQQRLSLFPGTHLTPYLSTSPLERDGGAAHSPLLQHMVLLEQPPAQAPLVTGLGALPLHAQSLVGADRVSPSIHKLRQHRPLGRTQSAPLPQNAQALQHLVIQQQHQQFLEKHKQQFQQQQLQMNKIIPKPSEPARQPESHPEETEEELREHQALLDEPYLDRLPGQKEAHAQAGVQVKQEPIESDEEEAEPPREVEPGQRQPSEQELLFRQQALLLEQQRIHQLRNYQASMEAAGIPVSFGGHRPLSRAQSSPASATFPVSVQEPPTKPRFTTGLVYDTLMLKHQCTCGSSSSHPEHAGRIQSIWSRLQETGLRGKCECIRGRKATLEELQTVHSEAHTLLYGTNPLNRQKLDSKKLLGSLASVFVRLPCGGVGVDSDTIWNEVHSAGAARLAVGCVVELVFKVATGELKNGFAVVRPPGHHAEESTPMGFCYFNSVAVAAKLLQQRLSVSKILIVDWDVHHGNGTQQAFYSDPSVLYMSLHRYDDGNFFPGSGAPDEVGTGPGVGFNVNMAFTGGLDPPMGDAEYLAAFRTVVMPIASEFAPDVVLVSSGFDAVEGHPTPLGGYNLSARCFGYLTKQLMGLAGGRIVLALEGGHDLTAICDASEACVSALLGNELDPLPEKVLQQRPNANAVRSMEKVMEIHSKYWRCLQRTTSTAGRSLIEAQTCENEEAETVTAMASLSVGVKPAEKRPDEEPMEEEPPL

Molecular target: HDAC4 (Homo sapiens, UniProt P56524)
Format: biochemical
Settings: Table 1

Structure (SMILES): COc1ccc(Cn2ccc3ccc(C(=O)NO)cc32)cc1 [Compound 6, PCI-34051, reference compound]
- IC50: 10 ± 1 µM
